This passage reports IC50 results from patent publication US8653096B2, “Chemokine receptor antagonists and methods of use thereof” (Millennium Pharmaceuticals, Inc., priority 2001, dated 2014).

Amino acid sequences for entries named in this document (tags omitted).
UniProt P32246, whole entry: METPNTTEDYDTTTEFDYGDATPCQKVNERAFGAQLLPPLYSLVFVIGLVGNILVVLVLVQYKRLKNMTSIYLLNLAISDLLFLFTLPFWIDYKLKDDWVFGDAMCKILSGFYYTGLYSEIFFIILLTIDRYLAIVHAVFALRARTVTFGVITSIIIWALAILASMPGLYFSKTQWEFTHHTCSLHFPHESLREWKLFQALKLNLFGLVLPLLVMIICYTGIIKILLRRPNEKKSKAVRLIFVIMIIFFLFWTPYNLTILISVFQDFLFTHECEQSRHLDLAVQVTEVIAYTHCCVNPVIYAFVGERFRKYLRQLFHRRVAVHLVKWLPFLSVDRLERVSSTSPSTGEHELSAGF

Each structure is given as a SMILES string.

For orientation: IC50 means the concentration that gives 50% inhibition. A higher IC50 goes with a need for much substance.

The experiment deals with RANTES/MIP-1α chemokine receptor (CCR1) in THP-1 cell membranes (Homo sapiens, UniProt P32246). As to the kind of experiment: Receptor binding assay: 125I-RANTES or 125I-MIP-1α binding to THP-1 cell membranes. Conditions: inhibitor concentration required for 50% inhibition of specific binding, 125I-RANTES or 125I-MIP-1α as ligand.
With `OCCCOc1ccc2c(c1)C(=CCCN1CCC(O)(c3ccc(Cl)cc3)CC1)c1cccnc1CO2`, the IC50 is below 1000 nM.
`O=C(Cc1ccc2c(c1)C(=CCCN1CCC(O)(c3ccc(Cl)cc3)CC1)c1cccnc1CO2)NCCO` registered an IC50 below 1000 nM.
As for `CN(C)C(=O)CCc1ccc2c(c1)C(=CCCN1CCC(O)(c3ccc(Cl)cc3)CC1)c1cccnc1CO2`, the IC50 is below 1000 nM.
As for `OC1(c2ccc(Cl)cc2)CCN(CCC=C2c3cc(OCC4CCCCO4)ccc3OCc3ncccc32)CC1` (stereo not drawn), the IC50 was below 1000 nM.
With `NC(=O)/C=C/c1ccc2c(c1)C(=CCCN1CCC(O)(c3ccc(Cl)cc3)CC1)c1cccnc1CO2` the figure was below 1000 nM.
In the case of `O=C(Cc1ccc2c(c1)C(=CCCN1CCC(O)(c3ccc(Cl)cc3)CC1)c1cccnc1CO2)NC1CC1`, the IC50 was below 1000 nM.
`O=C(c1ccc2c(c1)C(=CCCN1CCC(O)(c3ccc(Cl)cc3)CC1)c1cccnc1CO2)N1CCOCC1` displayed an IC50 below 1000 nM.
With `O=C(COc1ccc2c(c1)C(=CCCN1CCC(O)(c3ccc(Cl)cc3)CC1)c1cccnc1CO2)NC1CC1` the figure was below 1000 nM; with `CCN(CC)C(=O)/C=C/c1ccc2c(c1)C(=CCCN1CCC(O)(c3ccc(Cl)cc3)CC1)c1cccnc1CO2`, below 1000 nM; with `CNC(=O)/C=C/c1ccc2c(c1)C(=CCCN1CCC(O)(c3ccc(Cl)cc3)CC1)c1cccnc1CO2`, below 1000 nM.
Then `O=C(Cc1ccc2c(c1)C(=CCCN1CCC(O)(c3ccc(Cl)cc3)CC1)c1cccnc1CO2)N1CCOCC1`, with below 1000 nM; and `CCCNC(=O)COc1ccc2c(c1)C(=CCCN1CCC(O)(c3ccc(Cl)cc3)CC1)c1cccnc1CO2`, with below 1000 nM; and `CC(C)(Oc1ccc2c(c1)C(=CCCN1CCC(O)(c3ccc(Cl)cc3)CC1)c1cccnc1CO2)C(=O)NCCCO`, with below 1000 nM.
With `O=C(c1ccc2c(c1)C(=CCCN1CCC(O)(c3ccc(Cl)cc3)CC1)c1cccnc1CO2)N1CCCC1`, the IC50 was below 1000 nM.
In the case of `O=C(COc1ccc2c(c1)C(=CCCN1CCC(O)(c3ccc(Cl)cc3)CC1)c1cccnc1CO2)NCCO`, the IC50 is below 1000 nM.
